The list shows a part of the results, in another mix than the full data. Active and inactive are the calls of the source.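 The calls were made as follows: active = interference check ratio from 0.5 to 1.5 plus GFP to RFP signal ratio inhibition reaching or exceeding a fixed threshold (cut at about 30% in these data, passing the limit was not always enough); inactive = the rest.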
assay: suppressors of acrylamide-induced Pgst-4::GFP reporter in worms, primary screen, SKN-1 inhibitor project, whole organism, uHTS, GFP/RFP fluorescence ratio, strain VP596 (AID 624304); conditions: C. elegans VP596 Pgst-4::GFP/RFP ratio, 24 h, at 21.8 µM, active compounds read high

| Compound | inhibition |
| --- | --- |
| CC(C)(C)C(=O)NC(Sc1ccncn1)C(Cl)(Cl)Cl (stereo unspecified) | inactive: -0.688% |
| O=[N+]([O-])c1ncn(CCn2ncnc2[N+](=O)[O-])n1 | inactive: 5.37% |
| COC(=O)C1(C)COP(=O)(Nc2ccccc2)OC1 (stereo unspecified) | inactive: -11.2% |
| O=[N+]([O-])c1cccc(NC2=NCC(CBr)S2)c1 (stereo unspecified) | inactive: -12.2% |
| O=C(O)CNc1ccc([As](=O)(O)O)cc1 | inactive: 12.2% |
| O=P1(N(CCCl)CCCl)OCCCS1 (stereo unspecified) | inactive: -1.01% |
| O=C(Nc1cc([As](=O)(O)O)ccc1O)c1ccccc1 | inactive: 18.7% |
| Nc1ccc([As](=O)(O)c2ccc(N)cc2)cc1 | inactive: 2.52% |
| C[N+]1=C2C=CC=CC=C2SC12C([N+](=O)[O-])=CC([N+](=O)[O-])=C[C-]2[N+](=O)[O-] (stereo unspecified) | inactive: 11.8% |
| CCN(/C(=N/P(=O)(N1CCOCC1)N1CCOCC1)N1CCOCC1)c1ccc(OC)cc1 | inactive: 5.61% |
| CC(C)c1nc(Nc2ccccc2)n(P(=O)(N(C)C)N(C)C)n1 | inactive: -1.28% |
| CC(C)=N/N=C(\N)N[N+](=O)[O-] | inactive: 3.32% |
| CN(C)C(=O)OCCc1n(C)cc[n+]1C | inactive: 0.456% |
| CC1CCN(C(=O)Oc2c(Cl)cc(Cl)c3cccnc23)CC1 | inactive: -25.6% |
| c1cc(-c2nn[nH]n2)ccc1-c1nn[nH]n1 | inactive: 11.6% |
| COc1ccc(C2=NCC(CBr)S2)cc1 (stereo unspecified) | inactive: -1.6% |
| O=[N+]([O-])c1cccc2n[nH]nc12 | inactive: -4.56% |
| CC(=O)N1C2C3N(C(C)=O)C1C1N(C(C)=O)C(C(N1C(C)=O)N3C(C)=O)N2C(C)=O | inactive: -1.59% |
| Cc1ccc(NP(=O)(Oc2ccccc2)Oc2ccccc2)nc1 | inactive: 0.782% |
| CCc1nc2c(n1)c1c(non1O)c1c2no[n+]1[O-] | inactive: -14.3% |
| O=[N+]([O-])c1cc([N+](=O)[O-])c(CCNc2ccccc2)c([N+](=O)[O-])c1 | inactive: 6.4% |
| CCOC(=O)c1ccc(NC(=O)C(C)(CCl)SC)cc1 (stereo unspecified) | inactive: 7.99% |
| O=C(OC1CN2CCC1CC2)c1cccc([N+](=O)[O-])c1 (stereo unspecified) | inactive: 17.5% |

| Compound | inhibition |
| --- | --- |
| CSc1ccc(Nc2c([N+](=O)[O-])cc([N+](=O)[O-])cc2[N+](=O)[O-])cc1 | inactive: 8.12% |
| CCC(C)N(CC(C)C)C(=S)SC(NC(C)=O)C(Cl)(Cl)Cl (stereo unspecified) | inactive: -8.71% |
| COP1(=S)c2c(C)nn(CCC#N)c2N=C(c2ccc(F)cc2)N1C (stereo unspecified) | inactive: 6.51% |
| COC(=O)C1(C)COP(=O)(N2CCCC2)OC1 (stereo unspecified) | inactive: 8.48% |
| O=C(COc1ccccc1)OC1CN2CCC1CC2 (stereo unspecified) | inactive: -5.72% |
| O=C(Nc1ccncc1[N+](=O)[O-])c1ccc([N+](=O)[O-])cc1[N+](=O)[O-] | inactive: -5.08% |
| O=C(O)C(=O)c1ccc(N(CCCl)CCCl)cc1 | inactive: 7.44% |
| CCOC(=O)Nc1cccc([As](=O)(O)O)c1 | inactive: -2.34% |
| O=[N+]([O-])c1ccc(Nc2ccc(Oc3ccc([N+](=O)[O-])cc3[N+](=O)[O-])cc2)c([N+](=O)[O-])c1 | inactive: 10.3% |
| O=P(Nc1ccccn1)(c1cccc2ccccc12)c1cccc2ccccc12 | inactive: 5.11% |
| Cc1cc(SC(NC=O)C(Cl)(Cl)Cl)ncn1 (stereo unspecified) | inactive: -11.4% |
| CC1CCNP(=O)(N(CCCl)CCCl)O1 (stereo unspecified) | inactive: 10.6% |
| CCOC(=O)Nc1ccc([As](=O)(O)O)c(O)c1 | inactive: -11.1% |
| O=C(O)C(O)c1ccc(N(CCCl)CCCl)cc1 (stereo unspecified) | inactive: 5.05% |
| CCCCOc1ccc(C(=O)NCC2(N3CCCCC3)CCCCC2)cc1OC | inactive: 10.9% |
| Cc1cc(SC(NC(=O)c2ccccc2)C(Cl)(Cl)Cl)nc(C(C)C)n1 (stereo unspecified) | inactive: -4.1% |
| COP(=O)(OC)N1CC1c1ccccc1 (stereo unspecified) | inactive: 9.85% |
| COC(=O)C1(C)COP(=O)(N2CCCCCC2)OC1 (stereo unspecified) | inactive: -23.7% |
| CC(C)c1ccc(OP(=O)(Nc2ccccn2)Oc2ccccc2F)cc1 (stereo unspecified) | inactive: -18.7% |
| ClCCSc1nnc(-c2cccnc2)o1 | inactive: -3.89% |
| CC(C)NC(=O)NP(=O)(Oc1ccccc1)Oc1ccccc1 | inactive: -10.7% |
| O=C(OC1CN2CCC1CC2)c1cccc2[nH]cnc12 (stereo unspecified) | inactive: -2.03% |
| CCN(CC)C(=S)SC(NC=O)C(Cl)(Cl)Cl (stereo unspecified) | inactive: 15.9% |

| Compound | inhibition |
| --- | --- |
| O=[N+]([O-])c1cc([N+](=O)[O-])c(-c2ccn[nH]2)s1 | inactive: -7.96% |
| O=[As](O)(c1ccc(O)cc1)c1ccccc1O | inactive: 10.7% |
| C[As](=O)(O)c1cccc(C(=O)O)c1 | inactive: 1.79% |
| O=[N+]([O-])c1ccc(-c2cc([N+](=O)[O-])c(O)c([N+](=O)[O-])c2)cc1 | inactive: -9.44% |
| COc1cc(C(=O)NCC2(N3CCOCC3)CCCCC2)ccc1OCC(C)C | inactive: -7.46% |
| Cc1ccc2nc3c(c(C)c2c1)CC(C(Cl)Cl)S3 (stereo unspecified) | inactive: 12.2% |
| [N-]=[N+]=NC1CCCCC1NC(=O)c1cc([N+](=O)[O-])cc([N+](=O)[O-])c1 (stereo unspecified) | inactive: -0.0133% |
| Cc1ccc(OP(=O)(Nc2ccc([N+](=O)[O-])cn2)Oc2ccc(C)cc2)cc1 | inactive: -0.203% |
| COc1ccc(N/C(=N/P(=O)(N2CCOCC2)N2CCOCC2)N2CCOCC2)cc1 | inactive: -6.71% |
| O=[N+]([O-])c1cc(Oc2ccc([N+](=O)[O-])cc2C(F)(F)F)cc([N+](=O)[O-])c1 | inactive: 5.63% |
| O=C(OC1CN2CCC1CC2)C12CC3CC(CC(C3)C1)C2 (stereo unspecified) | inactive: 4.93% |
| Cc1cc(=O)[nH]c(N[N+](=O)[O-])n1 | inactive: -1.79% |
| Cc1c2c(nc3ccccc13)SC(C(Cl)Cl)C2 (stereo unspecified) | inactive: 18.5% |
| COc1ccc2nc(NP(=O)(c3ccccc3)c3ccccc3)sc2c1 | inactive: 2.67% |
| COc1cc(I)ccc1[As](=O)(O)O | inactive: -8.88% |
| O=P1(N(CCCl)CCCl)Nc2ccccc2N1 | inactive: 5.26% |
| O=P1(N(CCCl)CCCl)OCCCN1CCCl (stereo unspecified) | inactive: 18% |
| CCCOP(=S)(Nc1nc(N)cc(=O)[nH]1)OCCC | inactive: 4.49% |
| Nc1cccc2c([As](=O)(O)O)cccc12 | inactive: 41.1% |
| Cc1ccc(NCCc2c([N+](=O)[O-])cc([N+](=O)[O-])cc2[N+](=O)[O-])cc1 | inactive: 3.36% |
| COc1cc(C2NCCC3(OCCO3)C2(C)C)cc(OC)c1OC (stereo unspecified) | inactive: -5.73% |
| CCOP(=O)(Nc1cccc2ccccc12)OCC | inactive: 10.5% |
| O=[As](O)(O)c1cccnc1 | inactive: -1.4% |

| Compound | inhibition |
| --- | --- |
| COc1cc(C(=O)NCC2(N3CCOCC3)CCCCC2)cc(Cl)c1OC(C)C | inactive: 6.86% |
| CS(=O)(=O)c1ccc(Cl)c(NC(=O)COC(=O)C(O)(c2ccccc2)c2ccccc2)c1 | inactive: -4.99% |
| O=C(OC1CN2CCC1CC2)c1ccc(Cl)cc1 (stereo unspecified) | inactive: -8.48% |
| Cc1cccc(OCC(=O)OC2CN3CCC2CC3)c1 (stereo unspecified) | inactive: -4.15% |
| O=[As](O)(c1cccc(O)c1)c1cccc(O)c1 | inactive: -0.858% |
| NC(=O)Nc1ccc([As](=O)(O)O)cc1 | inactive: 10.1% |
| O=[N+]([O-])c1ccc2c(c1)nnn2O | inactive: -20.7% |
| CN(C)C(=O)c1cc([N+](=O)[O-])cc2c1-c1c(cc([N+](=O)[O-])cc1[N+](=O)[O-])C2=O | inactive: -17.3% |
| CN(C(=O)Cc1ccc(Cl)c(Cl)c1)[C@H]1CC[C@@]2(CCCO2)C[C@@H]1N1CCCC1 | inactive: 5.23% |
| N#CCCN(C(=O)COC(=O)C(O)(c1ccccc1)c1ccccc1)c1ccc(F)cc1 | inactive: 5.52% |
| CCOP1(=S)c2c(C)nn(CCC#N)c2N=C(c2ccc(F)cc2)N1C (stereo unspecified) | inactive: -7.69% |
| CN(C(=O)Cc1ccccc1)[C@@H]1CC[C@]2(CCCO2)C[C@H]1N1CCCC1 | inactive: 5.23% |
| CS(=O)(=O)c1cc([N+](=O)[O-])c2no[n+]([O-])c2c1 | inactive: -1.82% |
| CCOP1(=S)c2c(C)nn(CCC#N)c2N=C(c2ccccc2F)N1C (stereo unspecified) | inactive: 15.2% |
| O=P(Nc1nccs1)(Oc1ccccc1)Oc1ccccc1 | inactive: 1.76% |
| O=P(Nc1nccs1)(c1ccccc1)c1nc2ccccc2s1 (stereo unspecified) | inactive: 20.2% |
| Nc1ccccc1[As](=O)(O)c1ccccc1 | inactive: -9.69% |
| O=C(O)COc1ccc([As](=O)(O)O)cc1[N+](=O)[O-] | inactive: 17.7% |
| O=P1(Nc2ncccn2)COc2ccccc2OC1 | inactive: -9.43% |
| Cc1ccc(S(=O)(=O)N(CCCN)CCCc2c(C)nc(N)[nH]c2=O)cc1 | inactive: -14.2% |
| O=[As](O)(c1cccs1)c1cccs1 | inactive: 13.8% |
| Cc1ccc(OCC(=O)OC2CN3CCC2CC3)cc1 (stereo unspecified) | inactive: 6.16% |
| O=P1(Nc2ccc(Br)cn2)COc2ccccc2OC1 | inactive: -17.9% |

| Compound | inhibition |
| --- | --- |
| NS(=O)(=O)c1cccc(NC(=O)COC(=O)C(O)(c2ccccc2)c2ccccc2)c1 | inactive: -16.4% |
| Nc1cccc([As](=O)(O)c2ccccc2)c1 | inactive: -5.63% |
| Cc1nn(-c2ccccc2)c2c1P(=O)(N1CCOCC1)N(C)C(c1ccccc1)=N2 (stereo unspecified) | inactive: 6.7% |
| CC1CCC(C(C)C)C(OP(=O)(Nc2ccccn2)c2ccccc2)C1 (stereo unspecified) | inactive: 0.349% |
| Cc1ccc(C(=O)OC2CN3CCC2CC3)cc1 (stereo unspecified) | inactive: -8.37% |
| O=C(/C=C/c1ccccc1)OC1CN2CCC1CC2 (stereo unspecified) | inactive: -2.56% |
| CCCC1OP(=O)(Nc2ccccc2)OCC1CC (stereo unspecified) | inactive: 11.8% |
| CN(C)C1(CNC(=O)c2ccc(S(C)(=O)=O)cc2)CCCCC1 | inactive: -15.3% |
| COc1ccccc1CNC(=O)COC(=O)C(O)(c1ccccc1)c1ccccc1 | inactive: -14.6% |
| CC1(CBr)Cn2c(nc3ccccc3c2=O)S1 (stereo unspecified) | inactive: 13.7% |
| CC(C)/C=N\N=C(\N)N[N+](=O)[O-] | inactive: 2.17% |
| CN(C(=O)Cc1ccc(Cl)c(Cl)c1)[C@@H]1CCCC[C@H]1N1CCCC1 | inactive: 14.4% |
| CCOP(=O)(Nc1ccc(C)cn1)OCC | inactive: 3.15% |
| CN(CCCl)Cc1cc(Cl)c(NC2=NCCN2)c(Cl)c1 | inactive: 10.9% |
| O=P1(Nc2ccccn2)COc2ccccc2OC1 | inactive: -30.5% |
| CCC1=CC2Cc3nc4ccc(Cl)cc4c(N)c3C(C1)C2 (stereo unspecified) | inactive: -0.904% |
| O=P1(N(CCCl)CCCl)NCCC(C(F)(F)F)O1 (stereo unspecified) | inactive: 20.7% |
| Clc1n[nH]nc1-c1nn[nH][15n]1 | inactive: -12.1% |
| CC(C)(C)C(=O)NC(Sc1ncccn1)C(Cl)(Cl)Cl (stereo unspecified) | inactive: -2.23% |

Reference: PubChem BioAssay AID624304 (Sanford-Burnham Center for Chemical Genomics, 2012)
